Sequences of proteins named here, by UniProt entry; tags and fusion partners are left off. Residues count along the entry.
UniProt P20393, 284-614 limits assumed: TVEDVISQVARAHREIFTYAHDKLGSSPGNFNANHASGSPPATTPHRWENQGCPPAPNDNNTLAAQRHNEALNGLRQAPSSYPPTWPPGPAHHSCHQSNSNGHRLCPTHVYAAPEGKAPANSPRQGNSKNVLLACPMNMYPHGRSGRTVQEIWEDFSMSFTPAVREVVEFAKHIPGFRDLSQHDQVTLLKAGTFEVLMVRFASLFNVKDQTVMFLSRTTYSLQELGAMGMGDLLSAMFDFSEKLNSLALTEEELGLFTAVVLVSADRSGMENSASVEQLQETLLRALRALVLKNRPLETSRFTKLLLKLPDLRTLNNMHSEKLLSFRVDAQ

In paper PMC9681850, “Structural basis of synthetic agonist activation of the nuclear receptor REV-ERB” (Nature Communications, 2022):

Target: REV-ERBα LBD (Homo sapiens, UniProt P20393)
Assay: scintillation proximity radioligand binding assay with 3H-STL1267
Conditions: read-out: Kd for 3H-STL1267 binding, tested as the radiolabelled form

- Kd: 448 nM
Compound: Clc1nnc2ccc(Oc3ccccc3-c3ccccc3)nn12 [STL1267]
